US10690666B2, “Methods and compositions for modulating TH-GM cell function” (National University of Singapore, priority 2014, dated 2020)

Experiments:
Format in all cases: cell-based, mouse
[1] = tested on: naïve CD4+ T cells; experiment: In vitro TH-GM (GM-CSF-expressing TH) differentiation from naïve CD4+ T cells; settings: anti-CD3 and anti-CD28 plus cytokine or antibody
Procedure: FIGS. 13A and 13B depict the differentiation of GM-CSF-expressing TH cells is distinct from TH17 and TH1. Naïve CD4^+ T cells were primed with plate-bound anti-CD3 and soluble anti-CD28 in the presence of a combination of various cytokines and neutralizing antibodies as indicated. GM-CSF, IL-17 and IFN-γ expression was analyzed by intracellular staining (FIG. 13A) or RT-PCR (FIG. 13B)
FIGS. 14A-14D show the effect of IL-2 and IL-6 on TH-GM differentiation from naïve T cells. GM-CSF and IFN-γ expression in naive CD4^+ T cells activated for 72 h with anti-CD3 alone or plus anti-CD28 (FIG. 14A). […] The frequencies of GM-CSF^+ and IL-17^+ cells were measured by intracellular staining (FIG. 14B). […] The frequencies of GM-CSF^+ and IL-17^+ cells were analyzed. […] The frequencies of GM-CSF^+, IL-17^+ and IFN-γ^+ cells were analyzed.
FIGS. 15A-15F depict IL-7-STAT5 signaling programs TH-GM differentiation from naïve precursor cells. […] GM-CSF and IFN-γ expression was analyzed by intracellular staining (FIG. 15A) or ELISA (FIG. 15B). […] GM-CSF, IL-17 and IFN-γ expression was analyzed by intracellular cytokine staining (FIG. 15C). GM-CSF secretion was measured by ELISA (FIG. 15D). […] The binding of antibodies to Csf2 promoter region was detected by RT-PCR (FIG. 15F). […]

[2] = tested on: STAT5; experiment: Cytokine-induced STAT5 activation in CD4+ T cells, immunoblotting
Procedure: (§1) FIGS. 10A-10C show STAT5-mediated GM-CSF induction is independent of IL-23 or IL-1β signaling. In FIG. 10A, purified CD4^+ T cells were cultured with TGF-β and IL-6 for 3 days, followed by starvation for 6 h. Then cells were treated with various cytokines for 30 min, and pSTAT3 and pSTAT5 was determined by immunoblotting. STAT3 and STAT5 were further detected after stripping. […] The RT-PCR data were normalized to β-Actin. In FIG. 10C, splenocytes were obtained from MOG35-55/CFA-immunized WT mice before disease onset and challenged with MOG35-55 (20 μg/ml) in the absence or presence of IL-2 for 48 h. The frequencies of GM-CSF^+ and IL-17^+ cells among CD4^+CD44^hi T cells were measured by flow cytometry. *p<0.05.
(§2) FIGS. 17A-17E illustrate that IL-7 but not IL-2 induces STAT5 activation and GM-CSF expression in naïve CD4^+ T cells. FIGS. 17A-17C show flow cytometry of CD25 and CD127 on the surface of naïve CD4^+ T cells or cells activated with anti-CD3 and anti-CD28 at various time points as indicated. Activation of STAT5 in naïve CD4^+ T cells stimulated with IL-2 or IL-7 for 30 min (FIG. 17D). […] The RT-PCR data were normalized to β-Actin, and expression in naïve T cells activated for 2 h without cytokine was set to 1.
As shown in FIGS. 18A and 18B, CD4^+ T cells were activated with anti-CD3 and anti-CD28 for 3 days. After resting in fresh medium, cells were stimulated with IL-2 or IL-7 at various time points. The pTyr-STAT5 and β-Actin were detected by immunoblotting (FIG. 18A). GM-CSF mRNA expression was measured by RT-PCR (FIG. 18B). The RT-PCR data were normalized to β-Actin, and expression in cells without cytokine stimulation was set to 1. The ChIP assay shown in FIG. 18C was performed with normal IgG or STAT5-specific antibody. The binding of antibodies to Csf2 promoter region was detected by RT-PCR.
Next, the mechanism by which STAT5 regulates GM-CSF expression was investigated. […] Furthermore, IL-1R1 expression was not changed, whereas IL-23Rα expression was increased in Stat5^−/− CD4^+ T cells (FIG. 10B). […] Therefore, the effect of these two cytokines on GM-CSF induction in autoreactive T cells was further examined. Splenocytes derived from MOG35-55-immunized wild-type mice were challenged with MOG35-55 alone or plus IL-2. GM-CSF and IL-17 production by CD4^+ T cells were analyzed by intracellular cytokine staining. […] Furthermore, IL-7 carried out this function in a STAT5-dependent manner, as Stat5 deletion abrogated its effect on GM-CSF expression as assessed by intracellular cytokine staining and ELISA (FIG. 11A, lower panels, and FIG. 11B).
Next, it was determined whether IL-2 signaling could influence TH-GM differentiation from naïve CD4^+ T cells. […]

[3] = tested on: CD4+CD44hi T cells; experiment: MOG35-55 challenge of splenocytes from immunized mice, GM-CSF expression; settings: MOG35-55 (20 μg/ml) plus cytokine, 48 h
Procedure: as §1
Splenocytes were obtained from MOG35-55/CFA-immunized Stat5^+/+ and Stat5^−/− mice before disease onset and challenged with MOG35-55 (20 μg/ml) in the absence or presence of IL-7 for 48 h. Frequencies of GM-CSF^+ and IL-17^+ cells among CD4^+CD44^hi T cells were measured by flow cytometry (FIG. 11A). GM-CSF secretion was measured by ELISA (FIG. 11B). Data represent two independent experiments with two to three mice per group. […]
Next, the mechanism by which STAT5 regulates GM-CSF expression was investigated. […] GM-CSF and IL-17 production by CD4^+ T cells were analyzed by intracellular cytokine staining. […]

[4] = tested on: naïve CD4+ T cells; experiment: GM-CSF mRNA expression in naïve CD4+ T cells stimulated with IL-2 or IL-7, RT-PCR; settings: anti-CD3 and anti-CD28 plus cytokine
Procedure: as §2
Total RNA was extracted from cells with RNeasy kit (Qiagen) according to the manufacturer's instruction. Complementary DNA (cDNA) was synthesized with Superscript reverse transcriptase (Invitrogen). Gene expressions were measured by 7500 real-time PCR system (Applied Biosystems) with SYBR qPCR kit (KAPA). Actinb, Gapdh or Rn18S was used as internal control. The primer sequences are available upon request.
Next, it was determined whether IL-2 signaling could influence TH-GM differentiation from naïve CD4^+ T cells. The addition of IL-2 or antibody against IL-2 only had modest effect on the frequency of GM-CSF^+ cells (FIG. 14D), indicating a minimal effect of IL-2 on TH-GM differentiation. […] Thus, the minimal effect of IL-2 at least in part is due to the unresponsiveness of naïve CD4^+ T cells to IL-2 stimulation.

IL-2: cytokine (R&D Systems)
GM-CSF-expressing cell differentiation from naïve CD4+ T cells [1]: modest effect
STAT5 activation, Csf2 promoter binding and GM-CSF mRNA in activated CD4+ T cells ([2]; CD4+ T cells activated 3 days, rested, then cytokine): induced STAT5 activation, Csf2 promoter binding and GM-CSF mRNA upregulation
STAT5 activation (tyrosine phosphorylation) ([2]; CD4+ T cells cultured with TGF-β and IL-6 3 days, starved 6 h, cytokine 30 min): potently activated STAT5
duration of STAT5 activation in activated CD4+ T cells ([2]; compared with IL-7): prolonged STAT5 activation
STAT5 activation in naïve CD4+ T cells ([2]; naïve CD4+ T cells, cytokine 30 min): but not IL-2
frequency of GM-CSF+ T cells / GM-CSF expression in CD4+CD44hi T cells [3]: modest effects
GM-CSF mRNA expression in naïve CD4+ T cells [4]: but not IL-2
